The text below walks through data of paper PMC10133546, “Simultaneous determination of multiple components in rat plasma by UHPLC-sMRM for pharmacokinetic studies after oral administration of Qingjin Yiqi Granules” (Frontiers in Pharmacology, 2023).

Data set [1] is described as follows: Stability of the working solution (4°C for 1 month). It is filed as physicochemical.
Data set [2] is described as follows: Stability of analytes in rat plasma (auto-sampler, freeze-thaw, room temperature, long-term). The note with it: for Autosampler for 24 h Accuracy (%): autosampler 24 h; for Room temperature for 24 h Accuracy (%): room temperature 24 h; for Freeze thaw cycles Accuracy (%): three freeze-thaw cycles.
Data set [3] is described as follows: Pharmacokinetic study in rat plasma after oral administration of QJYQ (UHPLC-sMRM). Format: in vivo, Sprague-Dawley rats. The note with it: oral QJYQ 3.15 g/kg. Here is the method:
Exion LC AD tandem Blueline 3500 triple quadrupole mass spectrometer (AB SCIEX, Framingham, MA, United States) was used to thirty-three compounds in rat plasma. […] The whole detailed parameters of sMRM were obtained in Supplementary Table S1.
Rat plasma (100 μL) was mixed with 10% formic acid (10 μL) and vortexed for 1 min at room temperature. ISs (10 μL) and methanol/acetonitrile (1/1, v/v) (400 μL) were added and vortexed for 5 min, then centrifuged for 10 min at 14,000 rpm and 4°C. The transported supernatant was condensed to dryness under the flow of nitrogen gas. The dried residue was reconstituted with 70% methanol (100 μL) by vortex-mixing for 5 min and centrifuging at 14,000 rpm for 10 min. Last, 2 μL of the solution were injected into the UHPLC-sMRM system.
The pharmacokinetic study was approved by the Animal Ethics Committee of Tianjin University of Traditional Chinese Medicine (TCM-LAEC2021228). Ten male Sprague-Dawley rats (weight 220–240 g) was kept at the animal center of Tianjin University of Traditional Chinese Medicine (Tianjin, China). […] The sample was transferred right away following a 10 min period of centrifugation at 7000 rpm and 4°C. All plasma samples were frozen and stored at −80°C.
All the pharmacokinetic parameters were calculated using the DAS 1.0 software (Drug and Statistics 1.0, Medical College of Wannan, China). Pharmacokinetic parameters include the maximum drug concentration in plasma (Cmax), the time to achieve maximum drug concentration (Tmax), the area under the plasma concentration-time curve (AUC), elimination half-life (T1/2), and mean residence time (MRT). The pharmacokinetic parameters were computed using the non-compartmental model. All data are expressed as mean ± standard deviation (SD). GraphPad Prism 8.0 (GraphPad Software Inc., La Jolla, CA, United States) software was used to draw the drug-time curve.

Turning to isoliquiritin apioside, the “Working solution Accuracy (%)” value in data set [1] (1.56 ng/mL) is reported as 96.2%; in data set [1] (12.5 ng/mL), 98.1%; in data set [1] (100 ng/mL) it was 97.6%; in data set [1] (500 ng/mL), 100.0%.
Turning to `C[C@]1(OC(=O)/C=C/c2ccccc2)C[C@@H](O)[C@]2(O)C=CO[C@@H](O[C@@H]3O[C@H](CO)[C@@H](O)[C@H](O)[C@H]3O)[C@@H]21` [harpagoside], the “Working solution Accuracy (%)” value in data set [1] (100 ng/mL) is listed as 101.0%. The “−80°C for 1month Accuracy (%)” value in data set [2] (12.5 ng/mL, −80°C 1 month) is listed as 102.0%; in data set [2] (100 ng/mL, −80°C 1 month) it was 95.4%; in data set [2] (500 ng/mL, −80°C 1 month) it was 99.1%. In data set [2] (500 ng/mL), the “Autosampler for 24 h Accuracy (%)” value was found to be 102.0%.
Usually AUC(0-t) stands for exposure summed from dosing to a finite time, without extrapolation to infinity. A lower AUC(0-t) goes with less exposure. As a reminder, the Cmax is the peak of the concentration-time curve. Broadly, the Tmax is the time from dosing to the highest level. For harpagide, the “Working solution Accuracy (%)” value is recorded as 82.1% in data set [1] (1.56 ng/mL), 107.0% in data set [1] (12.5 ng/mL), 92.4% in data set [1] (100 ng/mL) and 101.0% in data set [1] (500 ng/mL). The MRT entry in data set [3] (MRT type not specified) is “greater than 8 h”. In addition, in data set [3] (n = 8, mean ± SD), the “AUC(0-t)” value came to 693.87 ± 217.37 ng·h/mL. The “AUC(0-∞)” value in data set [3] (n = 8, mean ± SD) is 723.75 ± 209.89 ng·h/mL. Also, the Cmax in data set [3] (n = 8, mean ± SD) came to 79.38 ± 7.71 ng/mL. Moreover, the “MRT (0-∞)” value in data set [3] (n = 8, mean ± SD) was 12.55 ± 1.09 h. Further, the “MRT(0-t)” value in data set [3] (n = 8, mean ± SD) turned out to be 10.67 ± 1.23 h. This compound had a T1/2 in data set [3] (n = 8, mean ± SD) of 7.62 ± 3.88 h. Besides, the time of peak concentration (Tmax) in data set [3] (n = 8, mean ± SD) was 0.75 ± 0.16 h. Besides, the “Autosampler for 24 h Accuracy (%)” value was found to be 93.7% in data set [2] (1.56 ng/mL), 88.1% in data set [2] (12.5 ng/mL), 96.1% in data set [2] (100 ng/mL) and 93.4% in data set [2] (500 ng/mL). In addition, the “Room temperature for 24 h Accuracy (%)” value in data set [2] (1.56 ng/mL) is 90.2%; in data set [2] (12.5 ng/mL), 92.7%; in data set [2] (100 ng/mL), 95.6%; in data set [2] (500 ng/mL) it was 96.4%. Moreover, the “Freeze thaw cycles Accuracy (%)” value in data set [2] (1.56 ng/mL) is 97.3%; in data set [2] (12.5 ng/mL), 102.0%; in data set [2] (100 ng/mL), 96.3%; in data set [2] (500 ng/mL), 105.0%. Further, the “−80°C for 1month Accuracy (%)” value in data set [2] (1.56 ng/mL, −80°C 1 month) was 105.0%; in data set [2] (12.5 ng/mL, −80°C 1 month) it was 92.9%; in data set [2] (100 ng/mL, −80°C 1 month) it was 88.3%; in data set [2] (500 ng/mL, −80°C 1 month), 92.7%.
In the case of `COc1c(O)cc(O)c2c(=O)cc(-c3ccccc3)oc12` [wogonin], in data set [2] (concentration 100 ng/mL), the “Freeze thaw cycles Accuracy (%)” value amounted to 104.0%.
For the compound `CC(C)=CCC[C@](C)(O)[C@H]1CC[C@]2(C)[C@@H]1[C@H](O)C[C@@H]1[C@@]3(C)CC[C@H](O)C(C)(C)[C@@H]3[C@@H](O[C@@H]3O[C@H](CO)[C@@H](O)[C@H](O)[C@H]3O[C@@H]3O[C@H](CO)[C@@H](O)[C@H](O)[C@H]3O)C[C@]12C` [ginsenoside Rf], the “Room temperature for 24 h Accuracy (%)” value in data set [2] (50 ng/mL) stood at 92.7%. Moreover, in data set [2] (100 ng/mL, −80°C 1 month), the “−80°C for 1month Accuracy (%)” value came out at 105.0%. Besides, in data set [2] (500 ng/mL), the “Autosampler for 24 h Accuracy (%)” value was 106.0% and the “Freeze thaw cycles Accuracy (%)” value is 106.0%.
For the compound `CC(C)(O[C@@H]1O[C@H](CO)[C@@H](O)[C@H](O)[C@H]1O)[C@@H]1CC[C@](O)(CO)[C@H]2CC(=O)[C@@](C)(O)[C@@H]2C1` [atractyloside A], the “Freeze thaw cycles Accuracy (%)” value in data set [2] (100 ng/mL) was found to be 101.0%; in data set [2] (500 ng/mL), 102.0%.
Regarding `CC(C)=CCC[C@](C)(O)[C@H]1CC[C@]2(C)[C@@H]1[C@H](O)C[C@@H]1[C@@]3(C)CC[C@H](O)C(C)(C)[C@@H]3[C@@H](O[C@@H]3O[C@H](CO)[C@@H](O)[C@H](O)[C@H]3O)C[C@]12C` [ginsenoside Rh1], the “Working solution Accuracy (%)” value in data set [1] (concentration 200 ng/mL) and in data set [1] (concentration 500 ng/mL) was 107.0% throughout. In addition, the “Freeze thaw cycles Accuracy (%)” value in data set [2] (50 ng/mL) and in data set [2] (concentration 200 ng/mL) was 101.0% throughout. Also, the “Room temperature for 24 h Accuracy (%)” value in data set [2] (concentration 200 ng/mL) stood at 90.2%. In data set [2] (−80°C for 1 month, concentration 200 ng/mL), the “−80°C for 1month Accuracy (%)” value came to 101.0%.
`COc1ccc(-c2coc3cc(O[C@@H]4O[C@H](CO)[C@@H](O)[C@H](O)[C@H]4O)ccc3c2=O)cc1` [ononin]: in data set [2] (1.56 ng/mL), the “Autosampler for 24 h Accuracy (%)” value was 106.0%. The “−80°C for 1month Accuracy (%)” value in data set [2] (100 ng/mL, −80°C 1 month) is on record as 95.4%. In data set [2] (500 ng/mL), the “Freeze thaw cycles Accuracy (%)” value is 106.0%.
liquiritin apioside: the “Working solution Accuracy (%)” value in data set [1] (1.56 ng/mL) amounted to 100.0%; in data set [1] (12.5 ng/mL) it was 115.0%; in data set [1] (100 ng/mL) it was 87.2%; in data set [1] (500 ng/mL), 87.9%. Moreover, the “AUC(0-t)” value in data set [3] (n = 8, mean ± SD) turned out to be 135.24 ± 23.80 ng·h/mL. Besides, in data set [3] (n = 8, mean ± SD), the “AUC(0-∞)” value was found to be 140.73 ± 27.38 ng·h/mL. The compound further came in with a peak concentration (Cmax) in data set [3] (n = 8, mean ± SD) of 32.92 ± 4.54 ng/mL. Moreover, the “MRT (0-∞)” value in data set [3] (n = 8, mean ± SD) was found to be 8.04 ± 4.40 h. In addition, the “MRT(0-t)” value in data set [3] (n = 8, mean ± SD) was 6.15 ± 1.76 h. The compound also came in with a T1/2 in data set [3] (n = 8, mean ± SD) of 10.72 ± 7.42 h. Also, the “Autosampler for 24 h Accuracy (%)” value in data set [2] (1.56 ng/mL) amounted to 84.7%; in data set [2] (12.5 ng/mL) it was 98.8%; in data set [2] (100 ng/mL), 87.2%; in data set [2] (500 ng/mL), 97.9%. The “Freeze thaw cycles Accuracy (%)” value was 90.2% in data set [2] (1.56 ng/mL), 100.0% in data set [2] (12.5 ng/mL), 104.0% in data set [2] (100 ng/mL) and 101.0% in data set [2] (500 ng/mL). Besides, the “−80°C for 1month Accuracy (%)” value in data set [2] (1.56 ng/mL, −80°C 1 month) stood at 100.0%; in data set [2] (12.5 ng/mL, −80°C 1 month), 102.0%; in data set [2] (100 ng/mL, −80°C 1 month), 99.1%; in data set [2] (500 ng/mL, −80°C 1 month), 105.0%. Moreover, the “Room temperature for 24 h Accuracy (%)” value in data set [2] (12.5 ng/mL) is reported as 86.6%; in data set [2] (100 ng/mL), 89.2%; in data set [2] (500 ng/mL) it was 95.0%.
`COc1c(O[C@@H]2O[C@H](C(=O)O)[C@@H](O)[C@H](O)[C@H]2O)cc(O)c2c(=O)cc(-c3ccccc3)oc12` [wogonoside]: the “Freeze thaw cycles Accuracy (%)” value in data set [2] (500 ng/mL) was found to be 97.1%.
For `O=C(/C=C/c1ccc(O[C@@H]2O[C@H](CO)[C@@H](O)[C@H](O)[C@H]2O)cc1)c1ccc(O)cc1O` [isoliquiritin], the “Working solution Accuracy (%)” value in data set [1] (100 ng/mL) was 98.1%. In addition, the “−80°C for 1month Accuracy (%)” value in data set [2] (12.5 ng/mL, −80°C 1 month) is 105.0%.
Consider `O=C(O)C=Cc1ccc(O)cc1` [p-Coumaric acid], for which the “Working solution Accuracy (%)” value in data set [1] (12.5 ng/mL) is 107.0%.
Consider `CC(=O)O[C@H]1[C@H](O[C@H]2CC[C@]34C[C@]35CC[C@]3(C)[C@@H]([C@@]6(C)CC[C@@H](C(C)(C)O)O6)[C@@H](O)C[C@@]3(C)[C@@H]5C[C@H](O[C@@H]3O[C@H](CO)[C@@H](O)[C@H](O)[C@H]3O)[C@H]4C2(C)C)OC[C@@H](O)[C@@H]1O` [astragaloside II(IS)], for which, in data set [2] (concentration 100 ng/mL), the “Room temperature for 24 h Accuracy (%)” value is 102.0% and the “Freeze thaw cycles Accuracy (%)” value came to 105.0%.
With `COc1c2c(cc3oc(CO)cc(=O)c13)O[C@H](C(C)(C)O)C2` [cimifugin], the “Working solution Accuracy (%)” value in data set [1] (100 ng/mL) stood at 101.0%. For the same compound, in data set [2] (12.5 ng/mL), the “Room temperature for 24 h Accuracy (%)” value amounted to 95.6%.
`O=C1C[C@@H](c2ccc(O[C@@H]3O[C@H](CO)[C@@H](O)[C@H](O)[C@H]3O)cc2)Oc2cc(O)ccc21` [liquiritin]: the “−80°C for 1month Accuracy (%)” value in data set [2] (1.56 ng/mL, −80°C 1 month) came out at 104.0%. In addition, in data set [2] (12.5 ng/mL), the “Freeze thaw cycles Accuracy (%)” value worked out at 104.0%.
Turning to `O=C(/C=C/c1ccc(O)c(O)c1)O[C@H]1[C@H](O)C[C@](O)(C(=O)O)C[C@H]1O` [cryptochlorogenic acid], in data set [2] (100 ng/mL), the “Room temperature for 24 h Accuracy (%)” value is recorded as 102.0%.
